Here are results for two compounds from patent US9951035B2 (dated 2018).

By UniProt entry, the sequences of proteins in these tests, tags left out. Residues count along the entry.
UniProt P08253, 110-660: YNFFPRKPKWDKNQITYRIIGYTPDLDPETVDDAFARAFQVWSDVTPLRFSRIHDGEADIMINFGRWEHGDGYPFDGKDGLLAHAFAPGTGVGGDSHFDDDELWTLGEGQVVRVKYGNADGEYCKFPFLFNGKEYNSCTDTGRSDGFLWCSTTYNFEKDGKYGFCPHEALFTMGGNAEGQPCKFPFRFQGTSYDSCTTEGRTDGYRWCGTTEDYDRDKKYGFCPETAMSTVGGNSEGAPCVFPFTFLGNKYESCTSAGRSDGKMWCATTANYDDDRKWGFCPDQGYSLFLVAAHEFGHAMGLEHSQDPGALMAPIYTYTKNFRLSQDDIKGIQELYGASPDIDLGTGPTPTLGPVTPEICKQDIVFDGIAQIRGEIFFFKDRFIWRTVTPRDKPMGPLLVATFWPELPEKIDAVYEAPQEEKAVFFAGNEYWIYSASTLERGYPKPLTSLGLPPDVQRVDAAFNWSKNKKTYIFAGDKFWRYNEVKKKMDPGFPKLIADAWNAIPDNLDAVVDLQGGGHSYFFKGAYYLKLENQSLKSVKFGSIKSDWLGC
UniProt P14780, 107-444: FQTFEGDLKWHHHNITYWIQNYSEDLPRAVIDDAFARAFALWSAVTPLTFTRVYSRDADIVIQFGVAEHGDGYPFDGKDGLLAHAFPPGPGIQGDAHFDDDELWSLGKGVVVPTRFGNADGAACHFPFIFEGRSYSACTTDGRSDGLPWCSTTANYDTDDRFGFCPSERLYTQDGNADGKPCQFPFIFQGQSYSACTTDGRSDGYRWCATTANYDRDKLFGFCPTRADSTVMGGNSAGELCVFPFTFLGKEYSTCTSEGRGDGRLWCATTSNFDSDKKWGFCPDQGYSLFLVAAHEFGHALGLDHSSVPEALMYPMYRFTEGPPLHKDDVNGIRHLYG

As a reminder, the Ki is the equilibrium dissociation constant of an inhibitor or competing ligand from its target. The kon is a measure of how fast the partners come together. A high value points to fast association. A word on the koff: it is a measure of how fast the partners let go of each other.

One assay concerns the target MMP-2 (Homo sapiens (Human), UniProt P08253). As to the kind of experiment: Enzyme inhibition studies, MMP-2. The assay is classed as biochemical.
A further assay deals with MMP-9 (Homo sapiens (Human), UniProt P14780). The assay can be described thus: Enzyme inhibition studies, MMP-9 catalytic domain.

SMILES strings stand for the structures.

With `N=C(N)Nc1ccc(Oc2ccc(S(=O)(=O)CC3CS3)cc2)cc1` (stereo not shown), the Ki on MMP-2 (Ki, slow-binding, Ki calculated from koff/kon) was 21 ± 2 nM. At MMP-9, this compound came in with a kon of 3820 ± 210 M⁻¹ s⁻¹. Further, the koff on MMP-9 (read-out: 10^3 koff) was found to be 0.355 ± 0.024 s⁻¹.
On to `CC(=O)NCc1ccc(Oc2ccc(S(=O)(=O)CC3CS3)cc2)cc1` (stereo not shown) [Compound 6, N-(4-(4-((Thiiran-2-ylmethyl)sulfonyl)phenoxy)benzyl)acetamide], for which, on MMP-2, the “fold more potent slow-binding inhibitor of MMP-2 than 4” value is on record as 3 fold, the kon was 3910 ± 50 M⁻¹ s⁻¹ and the residence time was found to be 18.2 ± 0.4 min. At MMP-2 (read-out: 10^3 koff), the koff stood at 0.915 ± 0.019 s⁻¹.
